ChEMBL document CHEMBL4627376, “Substituted benzyloxytricyclic compounds as retinoic acid-related orphan receptor gamma t (RORγt) agonists” (Bioorg Med Chem Lett, 2020)

Target: T1, Nuclear receptor ROR-gamma (Mus musculus) (UniProt P51450)
T1 sequence (whole entry): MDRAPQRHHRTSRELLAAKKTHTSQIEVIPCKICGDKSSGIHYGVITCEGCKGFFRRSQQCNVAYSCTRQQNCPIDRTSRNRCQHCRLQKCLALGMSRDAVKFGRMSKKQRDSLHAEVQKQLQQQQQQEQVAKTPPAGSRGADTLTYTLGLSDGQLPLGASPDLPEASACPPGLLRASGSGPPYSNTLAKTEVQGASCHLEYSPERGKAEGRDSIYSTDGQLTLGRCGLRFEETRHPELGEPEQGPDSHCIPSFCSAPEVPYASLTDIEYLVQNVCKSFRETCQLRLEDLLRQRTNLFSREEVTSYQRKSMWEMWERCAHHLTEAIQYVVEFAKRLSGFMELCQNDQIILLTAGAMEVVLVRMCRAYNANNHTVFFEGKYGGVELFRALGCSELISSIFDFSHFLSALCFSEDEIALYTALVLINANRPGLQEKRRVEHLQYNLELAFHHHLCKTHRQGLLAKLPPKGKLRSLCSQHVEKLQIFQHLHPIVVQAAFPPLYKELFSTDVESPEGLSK
Experiment: Agonist activity at RORgammat in po dosed C57BL6 mouse allografted with mouse MC38 cells assessed as increase in IL-17A expression in lymph node administered as po bid for 28 days by TaqMan probe based assay
Format: functional, organism-based

Activity: Dose-dependent effect
Structure (SMILES): C[C@]1(C(=O)N2CC[C@@]3(S(=O)(=O)c4ccc(F)cc4)c4ccc(OCc5c(F)cccc5C(F)(F)F)cc4CC[C@@H]23)CC[C@H](C(=O)O)CC1
